For assay [1], the target named is T1, Muscarinic acetylcholine receptor M4 (Homo sapiens, UniProt P08173). The assay is described as follows: Antagonist activity at human M4 receptor expressed in HEK293T cells assessed as inhibition of carbachol-induced response by BRET based Gq protein engagement assay. The class given is cell-based, HEK-293T. On the technique in general: In BRET a luciferase serves as donor, and the signal depends on an acceptor being close.

Protein sequences, listed by entry. Tags and fused reporters are not part of them.
UniProt P08173, whole entry: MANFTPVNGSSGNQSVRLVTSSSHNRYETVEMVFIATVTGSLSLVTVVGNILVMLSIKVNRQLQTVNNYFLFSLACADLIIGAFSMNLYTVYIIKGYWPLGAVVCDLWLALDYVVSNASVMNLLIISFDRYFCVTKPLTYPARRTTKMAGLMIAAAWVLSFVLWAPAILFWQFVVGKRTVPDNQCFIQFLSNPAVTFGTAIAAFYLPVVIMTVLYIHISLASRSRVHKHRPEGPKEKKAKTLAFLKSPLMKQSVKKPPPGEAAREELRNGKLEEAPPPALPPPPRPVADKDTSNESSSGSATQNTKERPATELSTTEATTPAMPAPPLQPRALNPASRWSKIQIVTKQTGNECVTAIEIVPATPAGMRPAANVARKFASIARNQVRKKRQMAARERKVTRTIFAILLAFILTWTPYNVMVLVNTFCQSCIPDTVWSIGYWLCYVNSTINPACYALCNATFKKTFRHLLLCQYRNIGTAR

Assay [2] addresses T1, Muscarinic acetylcholine receptor M4. The assay is described as follows: Antagonist activity at human M4 receptor expressed in HEK293T cells assessed as inhibition of carbachol-induced response by beta-arrestin engagement assay. The class given is cell-based, HEK-293T.
Assay [3] has the same target.

Data on one molecule can be found in ChEMBL document CHEMBL3351363 (J Med Chem, 2014).

Each structure is given as a SMILES string.

On to `CN1[C@@H]2C[C@@H](OC(=O)[C@H](CO)c3ccccc3)C[C@H]1[C@@H]1O[C@@H]12` [SCOPOLAMINE], for which the IC50 (in general, the concentration that inhibits the measured activity by half) is 3.8 nM in assay [1], 1.29 nM in assay [2] and 3.8 nM in assay [3].
